From patent publication US20090131354A1, “miR-126 REGULATED GENES AND PATHWAYS AS TARGETS FOR THERAPEUTIC INTERVENTION” (priority 2007, published 2009)

Tested on: A549 cells
Assay: mRNA array gene expression analysis after transfection
Type: cell-based, human
Conditions: A549, 30 nM

hsa-miR-126
Δ log2 RDX mRNA: 1.155 log2
